From patent publication US11576897B2, “Therapeutic agent for non-motor symptoms associated with Parkinson's disease” (priority 2017, dated 2023)

Biological target: human serotonin transporter (SERT) (Homo sapiens (Human), UniProt P31645)
Experiment: Human serotonin transporter (SERT) binding test
Settings: [3H]-citalopram, h-SERT/CHO cell membrane; read-out: h-SERT binding inhibition constant Ki

`CNCc1cc(OCc2ccccc2)n(CC2CC3CCC2C3)n1` (stereo not shown) [Example 115, 1-[5-(benzyloxy)-1-(bicyclo[2.2.1]hept-2-ylmethyl)-1H-pyrazol-3-yl]-N-methylmethanamine] showed a Ki of 1.5 nM.
